{"source": "patent US7608611B2", "about": "“Hsp90 inhibitors, methods of making and uses therefor” (The Regents of the University of Colorado, priority 2005, dated 2009)", "target": "human Hsp90 (Homo sapiens, UniProt P07900)", "conditions": "17-AAG, 12 hr"}
{"smiles": "C=CCNC1=C2C[C@@H](C)C[C@H](OC)[C@H](O)[C@@H](C)/C=C(\\C)[C@H](OC(N)=O)[C@@H](OC)/C=C\\C=C(/C)C(=O)NC(=CC1=O)C2=O", "note": "[17-AAG, 17-demethoxy-17-(2-propenylamino)-geldanamycin]", "values": [{"measurement": "inhibition of human Hsp90 ATPase activity with inclusion of NQO1", "setting": "NADH and rhNQO1", "value": "Inhibition was significantly increased"}, {"measurement": "inhibition of human Hsp90 ATPase activity in the absence of NQO1", "setting": "NADH", "value": "some inhibition of Hsp90 ATPase activity"}]}
